Values of other authors in patent US12455270B2, “Mesh for dissolution test” (Shionogi & Co., Ltd., priority 2019, dated 2025).

Conditions: input parameter of GastroPlus simulation

For NC(=O)N1c2ccccc2C=Cc2ccccc21 [Carbamazepine], the k21 is listed as 0.337 h⁻¹.
